Assay results taken from US11135316B2, “Imaging and treatment of pathophysiologic conditions by Cerenkov radiation” (priority 2014, dated 2021).

O=C[C@H]([18F])[C@@H](O)[C@H](O)[C@H](O)CO [FDG, 2′-deoxy-2′-(^18F)fluoro-D-glucose]
viable cells (STGM): > 95%
viable cells (U266): > 95%
